Assay results from paper PMC7918793, “5-Methoxybenzothiophene-2-Carboxamides as Inhibitors of Clk1/4: Optimization of Selectivity and Cellular Potency” (Molecules, 2021).

Protein sequences, listed by entry. Tags and fused reporters are not part of them. Lines headed by an entry give the natural chain unless they say otherwise; changes in a name come on top.
UniProt P49759: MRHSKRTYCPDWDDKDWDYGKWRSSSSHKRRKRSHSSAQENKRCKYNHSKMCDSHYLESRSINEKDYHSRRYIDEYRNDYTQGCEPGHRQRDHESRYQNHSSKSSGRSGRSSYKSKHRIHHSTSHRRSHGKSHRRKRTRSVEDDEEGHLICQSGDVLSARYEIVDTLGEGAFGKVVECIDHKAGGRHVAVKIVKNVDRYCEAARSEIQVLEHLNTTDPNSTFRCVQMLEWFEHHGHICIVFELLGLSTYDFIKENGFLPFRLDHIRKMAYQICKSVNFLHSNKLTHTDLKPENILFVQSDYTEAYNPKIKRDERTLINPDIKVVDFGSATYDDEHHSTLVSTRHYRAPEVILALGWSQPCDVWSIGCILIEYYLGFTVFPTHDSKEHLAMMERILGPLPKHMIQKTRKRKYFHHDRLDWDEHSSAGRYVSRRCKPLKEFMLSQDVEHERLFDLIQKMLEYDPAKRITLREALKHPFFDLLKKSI

Biological target: Clk1 (Homo sapiens, UniProt P49759)
Experiment: Clk1 kinase inhibition assay (15 μM ATP)
Type: biochemical
Set-up: purchased Life Technologies PV3315
Conditions: ratio of Clk2 and Clk1 IC50
From the text: Active human Clk1 and Clk2 were purchased from Life Technologies (Catalog No. PV3315 and PV4279, respectively). RS repeat substrate peptide for Clk1 ([…]) was custom synthesized at the Department of Medical Biochemistry and Molecular Biology, Saarland University, Homburg, Germany. […] The larger panel of kinases shown in Table 4 was screened by the SelectScreen Kinase Profiling Service, Thermo Fisher Scientific, Paisley, UK.

`COc1ccc2sc(C(=O)N(C)Cc3cccc(F)c3)cc2c1` [Compound 1b, N-Methyl-N-(3-fluorobenzyl)-5-methoxybenzothiophene-2-carboxamide] was tested. Which “Selectivity Factor for Clk1 over Clk2” value did it give?
Its value is 2.7.
